According to patent US6586425B2, “Cytoskeletal active agents for glaucoma therapy” (Wisconsin Alumni Research Foundation, priority 1996, dated 2003):

Tested on: living monkey eye
Details: living monkeys

1-(5-iodonaphthalene-1-sulfonyl)-1H-Hexahydro-1,4-diazepine
effect on outflow facility: increases outflow facility
